The record followed here is US20110319427A1, “USE OF 5AHQ AND BORTEZOMIB FOR THE TREATMENT OF HEMATOLOGICAL DISEASES” (priority 2009, published 2011).

Read-outs that look alike come from different tables or passages of the source.

`Nc1ccc(O)c2ncccc12` [5AHQ, 5-amino-8-hydroxyquinoline]: the “RF 5AHQ (Resistance Factor)” value in the test on THP1/WT turned out to be 1; in the test with THP1/BTZ50 (THP1/BTZ50 (+)) it was 1.6; in the test on THP1/BTZ50 (THP1/BTZ50 (−)), 1.8; in the test on THP1/BTZ500 (THP1/BTZ500 (+)), 1.4; with THP1/BTZ500 (THP1/BTZ500 (−)), 1.8.
